This experiment has as its target T1, α1A-AR (Homo sapiens, UniProt P35348).
T1 sequence (P35348 1-466): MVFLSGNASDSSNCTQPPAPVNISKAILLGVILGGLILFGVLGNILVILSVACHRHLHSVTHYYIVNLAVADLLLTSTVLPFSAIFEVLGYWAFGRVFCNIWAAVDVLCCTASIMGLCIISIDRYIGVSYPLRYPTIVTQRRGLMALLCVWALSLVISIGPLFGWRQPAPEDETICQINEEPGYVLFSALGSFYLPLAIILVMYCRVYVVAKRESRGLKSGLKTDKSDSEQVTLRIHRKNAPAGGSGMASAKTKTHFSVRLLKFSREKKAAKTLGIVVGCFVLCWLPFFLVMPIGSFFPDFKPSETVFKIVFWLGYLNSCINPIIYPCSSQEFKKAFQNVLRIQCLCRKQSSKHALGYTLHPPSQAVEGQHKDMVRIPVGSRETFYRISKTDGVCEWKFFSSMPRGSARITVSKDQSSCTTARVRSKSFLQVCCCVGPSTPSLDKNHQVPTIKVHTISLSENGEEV
The class given is binding. Details: expressed in transfected cells; host or cells: COS-7, transient (calcium phosphate). As for the experimental part:
Binding experiments were performed in a 100 µL reaction mix at room temperature in buffer composed of 50 mM Tris-HCl, pH 7.4, 10 mM MgCl2, 1 g/L BSA. Reactions were stopped by filtration through 96 GF/C filter plates pre-incubated with 0.5% polyethylenimine.
Binding data were analyzed by nonlinear regression using the KaleidaGraph 4.0 software (Synergy software, Reading, PA). pKD values and Bmax (number of binding sites) were determined by applying a nonlinear regression to data obtained with saturation binding assays. The nonlinear regression used was BS = (Bmax*A)/KD+A, where BS is the specific binding, Bmax the number of binding sites, A the concentration of radioligand, and KD the dissociation constant of the radioligand. Data resulting from competition binding assays were analyzed using the Hill equation for IC50 and curve slope estimations. […] The linear curves were analyzed with IC50 = Ki+(L/KD)*Ki. Dissociation kinetics were analyzed using a simple equation of exponential decay BS * exp (-Koff*t), where BS is the specific binding at time zero and Koff is the dissociation rate constant. Results are expressed as mean ± s.e. mean from n independent experiments. One-way Anova test was used to compare values. A p<0.05 was accepted for statistical significance.

On to `COc1cc2nc(N3CCN(C(=O)c4ccco4)CC3)nc(N)c2cc1OC` [3H-prazosin], for which the “^3H-prazosin dissociation rate” value was 0.05 ± 0.01 min⁻¹.

The values are drawn from publication PMC3723878 (PLoS ONE, 2013).
